Where two headings read alike, the source gives them in different places.
Columns and labels:
[1] = target: LIMK2 (Homo sapiens (Human), UniProt P53671); assay: Lanthascreen Eu binding assay (TR-FRET), inhibition of LIMK2
[2] = target: LIMK1 (Homo sapiens (Human), UniProt P53667); assay: Lanthascreen Eu binding assay (TR-FRET), inhibition of LIMK1

Chains of the proteins cited; added tags and fusions are not shown. Lines headed by an entry give the natural chain unless they say otherwise; changes in a name come on top.
UniProt P53671: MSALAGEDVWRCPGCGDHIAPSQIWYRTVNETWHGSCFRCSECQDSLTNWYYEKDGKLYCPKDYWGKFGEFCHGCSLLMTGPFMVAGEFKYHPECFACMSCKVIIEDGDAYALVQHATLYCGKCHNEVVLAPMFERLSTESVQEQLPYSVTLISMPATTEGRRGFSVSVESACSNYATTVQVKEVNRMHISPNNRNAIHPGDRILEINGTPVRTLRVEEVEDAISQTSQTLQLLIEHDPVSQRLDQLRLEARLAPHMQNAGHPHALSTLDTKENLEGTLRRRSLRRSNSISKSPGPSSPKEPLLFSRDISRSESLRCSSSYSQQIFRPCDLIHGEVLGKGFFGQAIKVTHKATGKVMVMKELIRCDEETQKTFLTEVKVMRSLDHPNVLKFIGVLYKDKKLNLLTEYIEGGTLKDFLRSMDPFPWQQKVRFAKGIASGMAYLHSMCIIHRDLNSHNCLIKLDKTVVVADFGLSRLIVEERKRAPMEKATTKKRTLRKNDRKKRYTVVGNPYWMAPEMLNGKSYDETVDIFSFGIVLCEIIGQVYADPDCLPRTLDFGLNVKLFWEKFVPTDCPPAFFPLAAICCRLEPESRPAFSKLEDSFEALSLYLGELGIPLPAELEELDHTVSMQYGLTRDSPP
UniProt P53667: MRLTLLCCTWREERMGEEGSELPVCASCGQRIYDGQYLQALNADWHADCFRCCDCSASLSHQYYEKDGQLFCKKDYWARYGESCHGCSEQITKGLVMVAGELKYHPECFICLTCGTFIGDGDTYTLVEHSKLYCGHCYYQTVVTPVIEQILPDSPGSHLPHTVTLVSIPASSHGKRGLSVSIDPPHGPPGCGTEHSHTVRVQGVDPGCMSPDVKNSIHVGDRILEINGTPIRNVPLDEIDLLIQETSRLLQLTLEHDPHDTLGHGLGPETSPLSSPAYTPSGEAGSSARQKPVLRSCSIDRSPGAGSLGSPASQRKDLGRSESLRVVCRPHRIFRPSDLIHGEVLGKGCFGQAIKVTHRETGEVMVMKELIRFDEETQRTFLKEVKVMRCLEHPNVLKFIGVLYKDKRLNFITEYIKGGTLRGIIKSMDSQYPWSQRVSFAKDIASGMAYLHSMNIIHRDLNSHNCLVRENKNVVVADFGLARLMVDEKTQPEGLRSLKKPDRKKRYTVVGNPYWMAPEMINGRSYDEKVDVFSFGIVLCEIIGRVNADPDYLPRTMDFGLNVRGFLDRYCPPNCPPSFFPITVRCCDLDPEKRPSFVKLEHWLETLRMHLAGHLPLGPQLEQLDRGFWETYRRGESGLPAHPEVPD

Compound	Ki ([1]; Lanthascreen Eu binding assay) [nM]	Ki [1] [nM]	Ki [2] [nM]
Cc1c[nH]c2ncnc(C3=CC(C)N(C(=O)Nc4cccc(Cl)c4)C(C)C3)c12 (stereo not drawn)	72.5	–	–
Cc1c[nH]c2ncnc(C3=CC(C)N(C(=O)Nc4cccc(Br)c4)C(C)C3)c12 (stereo not drawn)	–	62.7	24

From US20230312576A1, “4-(7H-PYRROLO[2,3-D]PYRIMIDIN-4-YL)-3,6-DIHYDROPYRIDINE-1-(2H)-CARBOXAMIDE DERIVATIVES AS LIMK AND/OR ROCK KINASES INHIBITORS FOR USE IN THE TREATMENT OF CANCER” (CENTRE NATIONAL DE LA RECHERCHE SCIENTIFIQUE, priority 2020, published 2023)
